Reference: patent US20110150914A1, “COMPOSITIONS AND METHODS FOR DENGUE VIRUS (DV) TREATMENT AND VACCINATION” (priority 2008, published 2011)

Amino acid sequences for entries named in this document (tags omitted). Residues count along the entry.
UniProt P01899, 25-362: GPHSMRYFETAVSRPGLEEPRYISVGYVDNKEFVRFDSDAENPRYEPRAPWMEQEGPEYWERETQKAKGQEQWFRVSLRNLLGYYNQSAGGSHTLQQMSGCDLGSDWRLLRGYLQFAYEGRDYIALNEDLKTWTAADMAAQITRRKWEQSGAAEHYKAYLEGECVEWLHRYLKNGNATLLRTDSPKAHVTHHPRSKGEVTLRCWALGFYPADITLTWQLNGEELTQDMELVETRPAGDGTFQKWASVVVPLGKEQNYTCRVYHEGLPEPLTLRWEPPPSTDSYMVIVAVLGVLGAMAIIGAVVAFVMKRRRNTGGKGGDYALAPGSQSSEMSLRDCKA

Molecular target: T1, purified H-2 D^b molecules (Mus musculus, UniProt P01899)
T1 construct: made in house
Assay: MHC peptide-binding assay, purified H-2 D^b
Details: radiolabeled peptide competition, read-out: Binding affinity (IC50 nM) H2-D^b
Procedure: Briefly, 0.1-1 nM of radiolabeled peptide was co-incubated at room temperature with 1 μM to 1 nM of purified MHC in the presence of 1-3 μM human β2-microglobulin (Scripps Laboratories) and a mixture of protease inhibitors. After a 2 day incubation, binding of the radiolabeled peptide to the corresponding MHC class I molecule was determined by capturing MHC/peptide complexes on Lumitrac 600 microplates (Greiner Bio-One) coated with either the Y3 (anti-H-2 K^b) or 28-14-8S (anti-H-2 D^b, L^d and D^q) Ab, followed by measurement of bound counts per minute (cpm) using the TopCount microscintillation counter (Packard).

## CC(C)C[C@H](NC(=O)[C@H](CO)NC(=O)[C@@H](NC(=O)[C@H](CC(N)=O)NC(=O)[C@@H](NC(=O)[C@H](CO)NC(=O)[C@@H](N)CO)C(C)C)C(C)C)C(=O)N[C@H](C(=O)O)[C@@H](C)O [NS4B59-66, SSVNVSLT]
  IC50: 1450 nM
